Results as given in patent publication US20260384421A1, “NOVEL COMPOUNDS THAT CAN BE USED AS THERAPEUTIC AGENTS” (published 2026).

Assays:
MDA-MB-231 cells = assay: alamarBlue proliferation assay with MDA-MB-231 cells (glucose-free Leibovitz's L-15 medium)
TANQUE cells = assay: alamarBlue proliferation assay with TANQUE cells; conditions: read-out: Activity on TANOUE: IC50, RPMI 1640 medium, 10% FBS
NB-4 cells = assay: alamarBlue proliferation assay with NB-4 cells; conditions: read-out: Activity on NB-4: IC50, RPMI 1640 medium, 10% FBS
HCT-116 cells = assay: alamarBlue proliferation assay with HCT-116 cells; conditions: read-out: Activity on HCT-116: IC50, McCoy's 5A medium, 10% FBS
BHY cells = assay: alamarBlue proliferation assay with BHY cells; conditions: read-out: Activity on BHY: IC50, DMEM medium, 10% FBS
A-549 cells = assay: alamarBlue proliferation assay with A-549 cells; conditions: read-out: Activity on A-549: IC50, DMEM medium, 10% FBS
SW-1353 cells = assay: alamarBlue proliferation assay with SW-1353 cells (glucose-free L-15 medium); conditions: read-out: Activity on SW-1353: IC50, Leibovitz's L-15 medium, 10% FBS, 0% CO2
LL/2 cells = assay: alamarBlue proliferation assay with LL/2 cells; conditions: read-out: Activity on LL/2: IC50; LL/2 murine Lewis lung carcinoma cells, DMEM medium, 10% FBS
HPEKp cells = assay: proliferation assay with human epidermal keratinocyte progenitors (HPEKp), selectivity versus MDA-MB-231
[1] = read-out: Activity (MDA), MDA-MB-231 cells, antiproliferative activity, class by IC50
[2] = read-out: Activity on MDA-MB-231 (IC50), glucose-free Leibovitz's L-15, 10% FBS, day 5, alamarBlue
[3] = read-out: Activity (HPEK), HPEK cells (HPEKp), antiproliferative activity, class by IC50
[4] = read-out: Activity (MDA): antiproliferative activity on MDA-MB-231 cells, IC50 category, MDA-MB-231 cells cultivated in glucose-free Leibovitz's L-15 medium
[5] = read-out: Activity (HPEK): antiproliferative activity on HPEK cells, IC50 category, HPEK cells cultivated in CnT-Prime medium

Row | IC50 (MDA-MB-231 cells; [1]) [nM] | IC50 (MDA-MB-231 cells; [2]) [nM] | IC50 (HCT-116 cells) [nM] | IC50 (A-549 cells) [nM] | IC50 (SW-1353 cells) [nM] | IC50 (HPEKp cells; [3]) [nM] | IC50 (MDA-MB-231 cells; [4]) [nM] | IC50 (HPEKp cells; [5]) [nM] | Compound | IC50 (TANQUE cells) [nM] | IC50 (NB-4 cells) [nM] | IC50 (BHY cells) [nM] | IC50 (LL/2 cells) [nM]
1 | < 1000 | ≤ 200 | ≤ 200 | ≤ 200 | ≤ 200 | < 10000 | – | – | O=C(c1ccc(Oc2ccc(C3CCC4(CC3)OCCO4)cc2CO)cc1)N1CC2CN(Cc3ccc(Cl)cc3)CC2C1 (stereo not drawn) | ≤ 200 | ≤ 1000 | ≤ 200 | ≤ 200
2 | – | ≤ 200 | ≤ 200 | ≤ 200 | ≤ 200 | – | < 1000 | < 5000 | O=C(c1ccc(Oc2ccc(C3CCC4(CC3)OCCCO4)cc2CO)cc1)N1CCN(Cc2ccccc2)CC1 | ≤ 1000 | ≤ 1000 | ≤ 1000 | ≤ 5000
3 | – | ≤ 200 | ≤ 200 | ≤ 200 | ≤ 200 | – | < 1000 | > 10000 | CS(=O)(=O)c1ccc(CN2CCN(C(=O)c3ccc(Oc4ccc(C5CCC6(CC5)OCCO6)cc4CO)cc3)CC2)cc1 | ≤ 200 | ≤ 200 | ≤ 200 | ≤ 1000
4 | – | ≤ 200 | ≤ 1000 | ≤ 200 | ≤ 200 | – | < 1000 | > 10000 | O=C(c1ccc(Oc2ccc(C3CCC4(CC3)OCCO4)cc2CO)cc1)N1CCN(Cc2ccoc2)CC1 | ≤ 1000 | ≤ 1000 | ≤ 1000 | ≤ 5000
5 | – | ≤ 200 | ≤ 200 | ≤ 200 | ≤ 200 | – | < 1000 | < 10000 | O=C(c1ccc(Oc2ccc(C3CCC4(CC3)OCCO4)cc2CO)cc1)N1CCN(Cc2ccc(Cl)cn2)CC1 | ≤ 200 | ≤ 200 | ≤ 200 | ≤ 1000
6 | – | ≤ 200 | ≤ 200 | ≤ 200 | ≤ 200 | – | < 1000 | < 10000 | O=C(c1ccc(Oc2ccc(C3CCC4(CC3)OCCO4)cc2CO)cc1)N1CCN(Cc2ccc(Cl)cc2)CC1 | ≤ 200 | ≤ 200 | ≤ 200 | ≤ 200
7 | – | ≤ 200 | ≤ 200 | ≤ 200 | ≤ 200 | – | < 1000 | < 10000 | O=C(c1ccc(Oc2ccc(C3CCC4(CC3)OCCO4)cc2CO)cc1)N1CCN(Cc2cccs2)CC1 | ≤ 1000 | ≤ 1000 | ≤ 200 | ≤ 5000
8 | – | ≤ 200 | ≤ 200 | ≤ 200 | ≤ 200 | – | < 1000 | > 10000 | O=C(c1ccc(Oc2ccc(C3CCC4(CC3)OCCO4)cc2CO)cn1)N1CCN(Cc2ccccc2)CC1 | ≤ 200 | ≤ 200 | ≤ 200 | ≤ 5000
9 | – | ≤ 200 | ≤ 200 | ≤ 200 | ≤ 200 | – | < 1000 | < 10000 | COc1ccc(CN2CCN(C(=O)c3ccc(Oc4ccc(C5CCC6(CC5)OCCO6)cc4CO)cc3)CC2)cn1 | ≤ 200 | ≤ 200 | ≤ 200 | ≤ 1000
10 | – | ≤ 200 | ≤ 200 | ≤ 200 | ≤ 200 | – | < 1000 | < 10000 | O=C(c1ccc(Oc2ccc(C3CCC4(CC3)OCCO4)cc2CO)cc1)N1CCN(Cc2ccc3oc(=O)ccc3c2)CC1 | ≤ 200 | ≤ 200 | ≤ 200 | ≤ 1000
11 | – | ≤ 200 | ≤ 200 | ≤ 200 | ≤ 200 | – | – | – | O=C(c1ccc(Oc2ccc(C3CCC4(CCCO4)CC3)cc2CO)cc1)N1CCN(Cc2ccccc2)CC1 (stereo not drawn) | ≤ 200 | ≤ 200 | ≤ 200 | ≤ 5000
12 | – | ≤ 200 | ≤ 200 | ≤ 200 | ≤ 200 | – | < 1000 | < 5000 | O=C(c1ccc(Oc2ccc(C3CCC4(CC3)OCCO4)cc2CO)cc1)N1CCCN(Cc2ccc(C(F)(F)F)cc2)CC1 | ≤ 200 | ≤ 200 | ≤ 200 | ≤ 200
13 | < 1000 | ≤ 200 | ≤ 1000 | ≤ 200 | ≤ 200 | < 10000 | – | – | CN(C)C(=O)c1ccc(CN2CCN(C(=O)c3ccc(Oc4ccc(C5CCC6(CC5)OCCO6)cc4CO)cc3)CC2)cc1 | ≤ 1000 | ≤ 1000 | ≤ 1000 | ≤ 5000
14 | – | ≤ 200 | ≤ 200 | ≤ 200 | ≤ 200 | – | – | – | O=C(c1ccc(Oc2ccc(C3CCC4(CC3)OCCO4)cc2CO)cc1)N1CCN(Cc2ccc([N+](=O)[O-])cc2)CC1 | ≤ 200 | ≤ 200 | ≤ 200 | ≤ 200
15 | – | ≤ 200 | ≤ 200 | ≤ 200 | ≤ 200 | – | < 1000 | < 10000 | O=C(c1ccc(Oc2ccc(C3CCC4(CC3)OCCO4)cc2CO)cc1)N1CCCN(Cc2ccc(Cl)cc2)CC1 | ≤ 200 | ≤ 200 | ≤ 200 | ≤ 200
16 | – | ≤ 200 | ≤ 200 | ≤ 200 | ≤ 200 | – | < 1000 | < 10000 | O=C(c1ccc(Oc2ccc(C3CCC4(CC3)OCCO4)cc2CO)cc1)N1CCN(Cc2ccsc2)CC1 | ≤ 200 | ≤ 200 | ≤ 200 | ≤ 5000
17 | < 1000 | ≤ 200 | ≤ 200 | ≤ 200 | ≤ 200 | < 10000 | – | – | COC(=O)c1ccc(CN2CCN(C(=O)c3ccc(Oc4ccc(C5CCC6(CC5)OCCO6)cc4CO)cc3)CC2)cc1 | ≤ 200 | ≤ 200 | ≤ 200 | ≤ 200
18 | – | ≤ 200 | ≤ 200 | ≤ 200 | ≤ 200 | – | < 1000 | < 10000 | Cn1c(CN2CCN(C(=O)c3ccc(Oc4ccc(C5CCC6(CC5)OCCO6)cc4CO)cc3)CC2)cc2ccccc21 | ≤ 200 | ≤ 200 | ≤ 200 | ≤ 200
19 | – | ≤ 200 | ≤ 200 | ≤ 200 | ≤ 200 | – | < 1000 | < 10000 | O=C(c1ccc(Oc2ccc(C3CCC4(CC3)OCCO4)cc2CO)cc1)N1CCN(Cc2ccc(C(F)(F)F)cn2)CC1 | ≤ 200 | ≤ 200 | ≤ 200 | ≤ 200
20 | – | ≤ 200 | ≤ 200 | ≤ 200 | ≤ 200 | – | < 1000 | < 5000 | O=C(c1ccc(Oc2ccc(C3CCC4(CC3)OCCO4)cc2CO)cc1)N1CCN(Cc2ccc(O)cc2)CC1 | ≤ 200 | ≤ 200 | ≤ 200 | ≤ 5000
21 | – | ≤ 200 | ≤ 200 | ≤ 200 | ≤ 200 | – | – | – | O=C(c1ccc(Oc2ccc(C3CCC4(CCCC4)CC3)cc2CO)cc1)N1CCN(Cc2ccccc2)CC1 | ≤ 200 | ≤ 200 | ≤ 200 | ≤ 5000

Where two headings read alike, the source gives them in different places.
